Molecular target: CYP1A2 (Homo sapiens, UniProt P05177)
Conditions: HLMs; pre-incubation 0–20 min

Chains of the proteins cited; added tags and fusions are not shown.
UniProt P05177, whole entry: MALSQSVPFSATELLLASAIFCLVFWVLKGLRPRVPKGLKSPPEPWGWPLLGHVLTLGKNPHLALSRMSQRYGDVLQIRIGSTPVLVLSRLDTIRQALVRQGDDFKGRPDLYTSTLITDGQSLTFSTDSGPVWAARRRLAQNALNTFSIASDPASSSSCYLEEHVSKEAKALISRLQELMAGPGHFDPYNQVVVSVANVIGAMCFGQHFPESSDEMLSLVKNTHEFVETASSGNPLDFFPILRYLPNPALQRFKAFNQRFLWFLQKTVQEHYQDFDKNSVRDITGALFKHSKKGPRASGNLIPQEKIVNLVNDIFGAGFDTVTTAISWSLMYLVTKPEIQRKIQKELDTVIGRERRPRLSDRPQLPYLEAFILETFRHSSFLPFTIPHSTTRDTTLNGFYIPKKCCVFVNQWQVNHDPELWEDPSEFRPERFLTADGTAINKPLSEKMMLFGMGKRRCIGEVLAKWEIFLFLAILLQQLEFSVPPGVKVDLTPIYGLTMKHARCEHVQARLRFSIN

Time dependency of CYP1A2 inhibition: time-dependent manner
Compound: O=c1cc(-c2ccccc2)oc2c1ccc1ccccc12 [α-Naphthoflavone, α-naphthoflavone]

— article PMC9243172 (Heliyon, 2022)
